Measurements as given in patent US6274557A, “Inhibition of nitric oxide synthase by amino acids and dipeptides” (Northwestern University, priority 1999, dated 2001).
pIC50, pKi: −log10 of the molar value.

What was measured:
[1] = target: T1, recombinant bovine endothelial nitric oxide synthase (eNOS) (Bos taurus, UniProt P29473); assay: Hemoglobin capture assay of nitric oxide formation, eNOS; format: biochemical; set-up: made in house; host or cells: E. coli
[2] = target: T1, recombinant bovine endothelial nitric oxide synthase (eNOS); assay: as above; format: biochemical
[3] = target: neuronal nitric oxide synthase (nNOS) from bovine brain (Bos taurus, UniProt A0A3Q1M6M2); assay: Hemoglobin capture assay of nitric oxide formation, nNOS; details: N-substituted L-arginines, ratio of the inverse of the Ki values (IC50 for methyl, ethyl)
[4] = listed as N^ω -propargyl-L-arginine

| pKi [2] | Selectivity nNOS/eNOS [3] | Selectivity nNOS/iNOS [3] | Selectivity nNOS/eNOS [3, 4] | Selectivity nNOS/iNOS [3, 4] | Structure (SMILES) | pIC50 [1] |
| --- | --- | --- | --- | --- | --- | --- |
| – | – | – | – | – | CNC(=N)NCCC[C@H](N)C(=O)O [methyl, N^ω -methyl-L-arginine, reference compound] | 5.23 |
| 6.09 | 1.9 | 1.4 | less than 2 | less than 2 | C#CCNC(=N)NCCC[C@H](N)C(=O)O [propargyl, N^ω -propargyl-L-arginine, reference compound] | – |
